According to PubChem BioAssay AID602396 (The Scripps Research Institute Molecular Screening Center, 2012):
This is a selection; strong and weak results do not stand in their true shares. The source made the active and inactive calls.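 The calls were made as follows: active = inhibition above the mean inhibition of all tested compounds plus 3 SD (cut at about 73% in these data); inactive = the rest.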

By UniProt entry, the sequences of proteins in these tests, tags left out.
UniProt O00482, whole entry, looked up: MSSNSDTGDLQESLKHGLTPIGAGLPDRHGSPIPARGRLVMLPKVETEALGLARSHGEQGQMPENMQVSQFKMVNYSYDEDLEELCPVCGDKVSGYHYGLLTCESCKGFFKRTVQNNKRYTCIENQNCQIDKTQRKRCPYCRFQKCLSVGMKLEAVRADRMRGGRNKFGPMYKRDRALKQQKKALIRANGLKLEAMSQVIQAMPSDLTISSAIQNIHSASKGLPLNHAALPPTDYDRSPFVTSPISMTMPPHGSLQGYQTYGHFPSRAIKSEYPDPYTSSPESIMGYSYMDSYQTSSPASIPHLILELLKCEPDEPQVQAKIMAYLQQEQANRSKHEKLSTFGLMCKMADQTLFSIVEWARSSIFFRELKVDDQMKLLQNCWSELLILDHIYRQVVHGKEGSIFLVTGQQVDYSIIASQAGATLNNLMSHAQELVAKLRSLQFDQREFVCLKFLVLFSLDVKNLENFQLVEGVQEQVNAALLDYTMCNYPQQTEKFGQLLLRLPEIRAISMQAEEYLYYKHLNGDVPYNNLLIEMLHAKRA

Each compound was assayed against Nuclear receptor subfamily 5 group A member 2 (Homo sapiens) (UniProt O00482) (assay: reduction of NR5A2-driven StAR reporter activity – cell-based, luminescence, HEK293T, StAR-luciferase reporter, primary screen (AID 602396;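 also: 0% = DMSO wells and 100% = reporter-only cells lacking LRH-1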)). Conditions: LRH-1 transfected, 24 h, at 3.6 µM, stronger effect = higher value.

| Structure (SMILES) | inhibition |
| --- | --- |
| O=P1(N(CCCl)CCCl)OCCCS1 (configuration not stated) | inactive: 0.14% |
| c1cc(-c2nn[nH]n2)ccc1-c1nn[nH]n1 | inactive: 6.36% |
| CC1CCN(C(=O)Oc2c(Cl)cc(Cl)c3cccnc23)CC1 | inactive: 12.2% |
| CC(C)=N/N=C(\N)N[N+](=O)[O-] | inactive: -1.47% |
| CC(C)c1nc(Nc2ccccc2)n(P(=O)(N(C)C)N(C)C)n1 | inactive: 2.97% |
| CN(C)C(=O)OCCc1n(C)cc[n+]1C | inactive: 10.2% |
| CCN(/C(=N/P(=O)(N1CCOCC1)N1CCOCC1)N1CCOCC1)c1ccc(OC)cc1 | inactive: 0.68% |
| Nc1ccc([As](=O)(O)c2ccc(N)cc2)cc1 | inactive: 5.97% |
| C[N+]1=C2C=CC=CC=C2SC12C([N+](=O)[O-])=CC([N+](=O)[O-])=C[C-]2[N+](=O)[O-] (configuration not stated) | inactive: 26.9% |
| Cc1ccc(NP(=O)(Oc2ccccc2)Oc2ccccc2)nc1 | inactive: 4.3% |
| O=[N+]([O-])c1cc([N+](=O)[O-])c(CCNc2ccccc2)c([N+](=O)[O-])c1 | inactive: 18.8% |
| CCc1nc2c(n1)c1c(non1O)c1c2no[n+]1[O-] | inactive: -0.98% |
| CC(=O)N1C2C3N(C(C)=O)C1C1N(C(C)=O)C(C(N1C(C)=O)N3C(C)=O)N2C(C)=O | inactive: 15.9% |
| O=[N+]([O-])c1cccc2n[nH]nc12 | inactive: 20.7% |
| COc1ccc(C2=NCC(CBr)S2)cc1 (configuration not stated) | inactive: 11.2% |
| c1nnnn1CCn1cnnn1 | inactive: 2.72% |
| O=P(Nc1nccs1)(c1ccccc1)c1ccccc1 | inactive: 8.62% |
| CC(C)C(=O)NC(Sc1ccccc1)C(Cl)(Cl)Cl (configuration not stated) | inactive: 5.73% |
| O=C(OC1CN2CCC1CC2)c1cccc(Cl)c1 (configuration not stated) | inactive: 6.9% |

| Structure (SMILES) | inhibition |
| --- | --- |
| Nc1ccc([As](=O)(O)c2ccc([N+](=O)[O-])cc2)cc1 | inactive: -6.9% |
| C(Cc1nn[nH]n1)Cc1nn[nH]n1 | inactive: -9.31% |
| O=[As](O)(c1ccccc1)c1ccc(O)cc1 | inactive: 11.2% |
| O=[N+]([O-])c1ncn(CCn2cnc([N+](=O)[O-])n2)n1 | inactive: 16.1% |
| CC(=O)NC(SC(=S)N(C)C)C(Cl)(Cl)Cl (configuration not stated) | inactive: 26.1% |
| O=[N+]([O-])c1ccc(O)c(/C=N/Nc2ccc([N+](=O)[O-])cc2[N+](=O)[O-])c1 | inactive: 7.83% |
| O=P(Nc1nc2ccccc2s1)(c1ccccc1)c1ccccc1 | inactive: 7.67% |
| C[C@H]1OP(=O)(Oc2ccccc2)[C@H](O)[C@H](O)[C@H]1N=[N+]=[N-] (some centres not stated) | inactive: -11.3% |
| CN(C)C1(CNC(=O)c2ccc(Cl)c(S(N)(=O)=O)c2)CCCCC1 | inactive: -5.22% |
| O=P(Nc1ccccn1)(c1ccc(Br)cc1)c1ccc(Br)cc1 | inactive: -1.08% |
| Nc1ccc(CCCCOc2ccccc2)cc1 | inactive: -20.5% |
| COc1ccc(N)c([N+](=O)[O-])c1[N+](=O)[O-] | inactive: -0.88% |
| Cc1ccccc1OP(=O)(Nc1ccccn1)Oc1ccccc1C | inactive: -9.14% |
| CC(NC(=O)COC(=O)C(O)(c1ccccc1)c1ccccc1)c1ccccc1 (configuration not stated) | inactive: 1.87% |
| CN(C)C(=O)Oc1noc2ccccc12 | inactive: 8.81% |
| O=c1c2cc([N+](=O)[O-])ccc2[nH]c2c([N+](=O)[O-])cc([N+](=O)[O-])cc12 | inactive: 12.2% |
| O=C(OC1CN2CCC1CC2)c1ccccc1 (configuration not stated) | inactive: -17.5% |
| CCC(=O)N1C2C3N(C(=O)CC)C1C1N(C(=O)CC)C(C(N1C(=O)CC)N3C(=O)CC)N2C(=O)CC | inactive: 11.8% |
| COC(=O)c1cc2c(s1)N=C(c1ccccc1)N(C)P2(=O)N1CCOCC1 (configuration not stated) | inactive: -0.55% |

| Structure (SMILES) | inhibition |
| --- | --- |
| Cc1ccc(OP(=O)(Nc2ccccn2)Oc2ccc(C)cc2)cc1 | inactive: -12.1% |
| CC(=O)NC(SC(=S)N(CC(C)C)CC(C)C)C(Cl)(Cl)Cl (configuration not stated) | inactive: -13.1% |
| O=P1(N(CCCl)CCCl)OCCC2CCCCN21 (configuration not stated) | inactive: -15.1% |
| c1ccc(-c2nn[nH]n2)c(-c2nn[nH]n2)c1 | inactive: -0.83% |
| Cc1ccc(NP(=O)(Oc2cccc(C)c2)Oc2cccc(C)c2)nc1 | inactive: -13.2% |
| O=C(NC1CCS(=O)(=O)C1)NP(=S)(Oc1ccccc1)Oc1ccccc1 (configuration not stated) | inactive: 7.55% |
| CCNC(=S)/N=C(\N)N[N+](=O)[O-] | inactive: 4.2% |
| CC(=O)Nc1ccc([As](=O)(O)O)c(O)c1 | inactive: 12.9% |
| CC(=O)Nc1ccc(Oc2c([N+](=O)[O-])cc([N+](=O)[O-])cc2[N+](=O)[O-])cc1 | inactive: 6.85% |
| Cc1ccccc1CN(C)C(=O)COC(=O)C(O)(c1ccccc1)c1ccccc1 | inactive: 2.52% |
| C[C@@H]1C=CCP(=O)(Oc2ccccc2)O1 (some centres not stated) | inactive: 5.17% |
| C[C@H]1OP(=O)(Oc2ccccc2)C[C@@H]2O[C@@H]21 (some centres not stated) | inactive: -17.2% |
| N#C/C(=C\c1ccc(N(CCBr)CCBr)cc1)C(N)=O | inactive: 11.9% |
| CC(=O)c1ccc(N2CC2c2ccncc2)cc1 (configuration not stated) | inactive: -9.41% |
| COC(=O)C1(C)COP(=O)(NCc2ccccc2)OC1 (configuration not stated) | inactive: 14.4% |
| CC(C)(C)C(=O)NC(Sc1ccccc1)C(Cl)(Cl)Cl (configuration not stated) | inactive: -13.4% |
| CCc1cc(O)c([N+](=O)[O-])c(C)c1[N+](=O)[O-] | inactive: -0.62% |
| O=P1(Nc2nc3ccc(Cl)cc3s2)COc2ccccc2O1 (configuration not stated) | inactive: -42.5% |
| CCOc1ccc(C2=NCC(CBr)S2)cc1 (configuration not stated) | inactive: -4.88% |
